Where two headings read alike, the source gives them in different places.
Test system: human lymphocytes
Procedure: Gene toxicity was assessed by testing the potential of SET-M33L to induce micronuclei in human lymphocytes. Human lymphocytes in whole blood culture, stimulated to divide by addition of PHA 48 hours prior to treatment, were exposed to SET-M33L for 3 hours with and without exogenous metabolic activation (S9 mix), and for 20 hours without S9 mix.
Analysis of micronucleated cells was based on the criteria described by Fenech and Morley[37] and Fenech[38]. […] Human lymphocytes from informed donors were pooled and diluted with HML media (RPMI 1640, supplemented with 10% fetal calf serum, 0.2 IU/ml sodium heparin, 20 IU/ml penicillin, 20 μg/ml streptomycin and 2.0 mM L-glutamine). […] Cultures were established from the prepared (pooled) sample and dispensed as 5 ml aliquots (in sterile universal containers) so that each culture contained blood (0.4 ml), HML media (4.5 ml) and PHA solution (0.1 ml). The cultures were then incubated at 37 °C, and the cells were resuspended (twice daily) by gentle inversion. […]
The cells were harvested by centrifugation at 500 g for 5 minutes. […] The prepared slides were examined by fluorescence microscopy. The incidences of mononucleate, binucleate and polynucleate cells were assessed per culture per 1000 binucleate cells. […]

SMILES: COc1cc2c(c(OC)c1OC)-c1ccc(OC)c(=O)cc1[C@@H](NC(C)=O)CC2 [COL, Colchicine]
- Mean of binucleate cells containing micronuclei per 1000 cells: 19.0 per 1000 cells
- Mean of binucleate cells containing micronuclei per 1000 cells (3h − S9, 0.06 μg/ml, positive control): 20.5 per 1000 cells
